Results reported in patent publication US20120114564A1, “MRI T1 CONTRASTING AGENT COMPRISING MANGANESE OXIDE NANOPARTICLE” (SEOUL NATIONAL UNIVERSITY INDUSTRY FOUNDATION, priority 2007, published 2012).

Tested on: MDA-MB-435 human breast cancer cells
Assay: Cancer specific MRI in breast cancer brain metastatic tumor model
Assay type: in vivo, mouse
Conditions: 25 nm, 35 mg of Mn per kg body weight, bolus tail vein, 4.7T

Herceptin conjugated MnO nanoparticles: Maleimido-PEG-phospholipid coated MnO nanoparticles conjugated with the breast cancer specific antibody Herceptin
Cancer cell targeting MR images compared with non-functionalized MnO nanoparticles: more excellent cancer cell targeting MR images
